Ab-14 heavy chain CDR variants: yeast mating affinities

From the AlphaSeq antibody data of Li et al. 2023 (doi:10.1038/s41467-023-39022-2), copy in the FLAb collection.

The target is the same throughout: PDVDLGDISGINAS, from the HR2 region of SARS-CoV-2 spike.

Parent scFv Ab-14: VH joined to VL by a (GGGGS)3 linker. Changes lie in the heavy chain CDRs alone.
VH: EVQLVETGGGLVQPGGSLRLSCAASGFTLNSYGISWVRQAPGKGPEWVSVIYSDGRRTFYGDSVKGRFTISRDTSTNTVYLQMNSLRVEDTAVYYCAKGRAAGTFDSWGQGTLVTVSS
VL: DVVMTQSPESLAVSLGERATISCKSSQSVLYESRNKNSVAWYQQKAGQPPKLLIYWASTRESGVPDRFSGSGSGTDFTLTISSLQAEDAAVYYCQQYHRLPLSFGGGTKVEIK

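The parent was found by panning a naive human phage display library on the peptide. Designed CDR sequences, proposed from the first random library and measured here. Several design methods are mixed in this list. The assay is AlphaSeq: two haploid yeast populations carry antibody and antigen on their surface. The frequency of each diploid, read from paired DNA barcodes, reflects how well the two displayed proteins bind. Scores were corrected for input abundance and mapped to Kd with protein pairs of known affinity run in the same pool. Mating was done six times.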

Each variant is given by its three heavy chain CDRs, as the data file delimits them; those of the parent are GFTLNSYGIS, VIYSDGRRTFYGDSVK, GRAAGTFDS. Each Kd is an estimate from the mating assay, the geometric mean of the replicates in which the pair was seen; lower is stronger. Where no diploid with the target was found in any replicate, the entry reads "nd": below detection, most likely a poor binder, though not proof of it. A sequence measured in both rounds can read differently, since the two assays cover different ranges. The authors averaged sequences with at least three values out of six and counted those with two or fewer as poor binders. As a blank, each scFv also met three strains without target: over all heavy chain designs, 1% of these pairings were detected, typically at 120 nM and seldom below 7.0 nM. The parent sequence was in this pool as ten entries: three were never detected, three once, and four in most replicates, with averages from 2.2 nM to 240 nM.

Kd (apparent),detected,CDR-H1,CDR-H2,CDR-H3
52 nM,1/6,GFDLEEMGIS,VIYADGIRTAVSEDVK,GNVAGTGDF
nd,0/6,GFTLDMYGIS,VIYSDGRRTFYGDSVK,GRAAGTALS
nd,0/6,GFTLNSYGIS,VIYSDGRRTAYGDSVK,LQPAGTFDS
690 pM,6/6,GFTLNSYGIS,VIYSDGIRTFYGDSVK,GREAGTFDS
530 pM,6/6,GFDLDEYGIS,VIYADGRRTYYQDSVK,GQNAGTFDQ
260 pM,6/6,GFDLNEYGIS,VIYADGVRTAYVDSVK,GNNAGTFDM
420 pM,6/6,GFDLNEYGIS,VIYADGQRTFYTDSVK,GQNAGTFDV
15 nM,5/6,GFDLNEYGIS,VIYADGMRTFYADSVK,GNAAGTFDV
nd,0/6,GFTLNSYGIS,VIYSDGQRTFYGDSVK,GKAKGTFDS
2.9 nM,6/6,GFTLNSYGIS,VIYSDGVRTFYSDSVK,GSAAGTFDS
nd,0/6,GFDLDEYGIS,VIYADGKRSAYHDSFK,GQLNKVSIV
nd,0/6,GFQVQEYGIS,VIYADGRRTQYTDAVK,GKLNDVLFV
16 nM,6/6,GFTLNDYGIS,VIYSDGRRTFYSDSVV,GRAGGTFDS
18 nM,5/6,GFSLNMYGIS,VIYSDGRRTFYQDSVK,GRAAGTFDS
nd,0/6,GFWLNEYGIS,VIYSDGRRTFYGDSVK,GKTAGTFDT
1.1 nM,6/6,GFDLNEYGIS,VIYADGRRTAYADSVK,GEAAGTFDS
nd,0/6,GFTLNDYGIS,VIYSDGRRTFYGDSVK,GRAAGTFTD
nd,0/6,GTTLLSYGIS,VIYSDGRRTFYQDNVK,GRAAGTFDS
160 nM,2/6,GETLNSYGIS,VIYSDGRRTFYGDSVK,GRAAGTFDL
6.7 nM,6/6,GFDLNSYGIS,VIYSDGRRTFYGDSVK,GEAAGTFDF
230 pM,6/6,GFDLNEYGIS,VIYADGQRTAYADSVK,GGNAGTFDT
830 pM,6/6,GFDLNSYGIS,VIYSDGRRTFYTDSVK,GKNAGTFDS
2.5 nM,6/6,GFDLNSYGIS,VIYSDGRRTFYGDAVK,GKAAGTFDS
19 pM,6/6,GFDLNEYGIS,VIYADGRRTFYIDSVK,GTAAGTFDI
nd,0/6,GFQLNSYGIS,VIYSDGRRTFYVDSVK,GRLAGTFDT
24 nM,4/6,GEDLQEYGIS,VIYADGFRQSYSDKVK,GQHAGFLVK
21 nM,6/6,GFTLNSYGIH,VIYADGFRTFYGDSVK,GRAAGTFSS
nd,0/6,CFTLNSYGIS,VIYSDGRRTFYDDVVK,YQLAGTFDS
340 pM,6/6,GFDLNEYGIS,VIYADGKRTFYADNVK,GNVAGTFDQ
nd,0/6,GFDIEDYGIS,VIYADGMRSSYSNSFK,GLMSGNIMV
7.4 nM,6/6,GFELNDYGIS,VIYSDGRRTFYGDAVK,GRAAGTFDI
240 pM,6/6,GFDLNEYGIS,VIYADGVRTAYADSVK,GTNAGTFDV
1.5 nM,5/6,GFTLNSYGIS,VIYADGRRTFYGDSVR,GRAAGTFDS
nd,0/6,GFDLNSYGIS,VIYSDGRRTFYQDDVK,GQAAGTFDS
310 pM,6/6,GFDLNEYGIS,VIYADGRRTYYADSVK,GQNAGTFDQ
nd,0/6,YFTLNSYGIS,VIYSDGRRTFYSDSVK,GEAAGTFDS
1.1 nM,6/6,GPNLEEYGIS,VIYADGIRTAYKDSVK,GDVAGYGVF
nd,0/6,GFSLDEFGIS,VIYADGMRSFYTDNVK,GINGNALWI
6.3 nM,6/6,GFTLNSYGIS,VIYSDGRRTFYSDSVR,GRAAGTFDS
550 pM,6/6,GFDLNEYGIS,VIYADGRRTAYADKVK,GENAGTFDV
1.4 nM,6/6,GFQLNEYGIS,VIYSDGRRTFYADSVK,GKAAGTFDS
1.2 nM,6/6,GFSLNDYGIS,VIYSDGRRTFYGDSVK,GRAALTFDH
nd,0/6,GFTLNEYGIS,VIYSDGRRTFYTDSVK,GRFAGEFDS
500 pM,6/6,GFDLNEYGIS,VIYADGVRTAYADAVK,GENAGTFDV
nd,0/6,GFTLNSYGIS,VIYSDWRRTFYGDSVK,GRDAGTFDS
460 nM,2/6,GFNLNSYGIS,VIYSDGRRTFYQDRVK,GQAAGTFDS
82 nM,6/6,GFTLDSYGIS,VIYSDGRRTFYGDSVK,GKAAGTFDR
nd,0/6,GFTLNSYGIS,VIYSDGRRTFYKDSVK,GTLAGTFDS
81 pM,6/6,GFDLNEYGIS,VIYADGRRTAYADSVK,GNTAGTFDM
nd,0/6,GFNLNSYGRS,VIYSDGRRTFYGDSVK,GRAAGTFDS
410 pM,6/6,GFDLNEYGIS,VIYADGVRTYYSDSVK,GENAGTFDV
nd,0/6,GFELNMYGIS,VIYSDGRRTFYADSVK,GKAAGTFDS
nd,0/6,GFTLSSYGVS,VIYSDGRRTFYGDSVK,GRAAGTFDS
nd,0/6,GDVLDEYGIS,VIYADGRRTFYTQDVK,GGKAGSLSV
nd,0/6,GFTLDSYHIS,VIYSDGRRTFYGDSVK,GRNAGTALS
nd,0/6,GFELDSYGIS,VIYSDGRRTFYDDSVK,GRSAKTFDS
nd,0/6,GFDLQEYGVS,VIYADGARKSYTNSVK,GVVGGGMDV
nd,0/6,GFNLNSYGIS,VIYSDGMRTFYGDSVK,GRTAGTFDS
440 pM,6/6,GFELNEYGIS,VIYSDGRRTFYSDSVK,GRAAGTFDS
2.0 nM,6/6,GFDINEYGIS,VVYADGMRQAYAENVK,GELSGTFDA
1.4 nM,1/6,GFTLNSYGIS,VIYSDGRRTFYGDSVK,GRAAGTFDH
nd,0/6,GFNLNEYGIS,VIYADGQRTSYTDQVK,GVETGAVLD
nd,0/6,GFTLNSYGIQ,VIYSDGRRTVYSDSVK,GRCGGTFDS
nd,0/6,GFNINEYGIS,VIYADGLRVQYIDSVK,GNASIFGVD
nd,0/6,GENLDEYGIS,VIYADGVRSQYTDQVK,GVETGAVLE
110 nM,4/6,KFTLESYGIS,VIYADGRRTFYGDSVK,GRAAGTFDS
930 pM,6/6,GFDLNEYGIS,VIYADGMRTAYQDSVK,GNVAGTFDI
3.9 nM,1/6,GFELNSYGIS,VIYSDGRRTFYGDSVK,GRSAGTFDT
8.8 nM,6/6,GFDLNSYGIS,VIYSDGRRTFYIDSVK,GHAAGTFDS
nd,0/6,GFNLEEYGIS,VIYADGFRASYQQKVK,GQDGSVMLD
nd,0/6,GFTLNSYGID,VIYSDGRRTFYEDSVK,GRAADTKDS
4.3 nM,6/6,GFNLDEFGIS,VIYADGNRTFYLDSVK,GTWVGTVDI